Data taken from publication PMC7226989, “Establishment of an in Vitro Human Blood-Brain Barrier Model Derived from Induced Pluripotent Stem Cells and Comparison to a Porcine Cell-Based System” (Cells, 2020).

Columns and labels:
[1] = test system: hiPSC-derived BMECs
[2] = test system: hiPSC-derived BMECs (Cl1)

Permeability coefficient in the human model [1]: 0.6 ×10⁻⁶ cm/s
Permeability human BBB_Cl1 [2]: 0.61 ± 0.01 x10^-6 cm/s
Substance: rhodamine-123
